Patent US20230068456A1, “REAL-TIME MONITORING OF IN VIVO FREE RADICAL SCAVENGERS THROUGH HYPERPOLARIZED N-ACETYL CYSTEINE ISOTOPES” (THE UNITED STATES OF AMERICA, AS REPRESENTED BY THE …, priority 2020, published 2023)

Legend:
Hs766t tumor xenografts = experiment: Dynamic 13C MR spectra and CSI of hyperpolarized [1-13C] NAC at 3T MRI, Hs766t tumor xenografts; details: Hs766t xenograft, FIG. 4E
Procedure: All of the animal experiments were conducted in compliance with the Guide for the Care and Use of Laboratory Animal Resources, and experimental protocols were approved by the Animal Care and Use Committee, National Cancer Institute (NCI-CCR-ACUC) (National Research Council, Committee for the Update of the Guide for the Care and Use of Laboratory Animals. Guide for the care and use of laboratory animals. Washington, D.C.: Institute of Laboratory Animal Resources 2011). The human pancreatic ductal adenocarcinoma (PDAC) cell lines, […], and SU.86.86 cells, were purchased from Threshold Pharmaceuticals (Redwood City, Calif.). Human pancreatic tumor inoculated mice were generated by subcutaneous injection of 3×10^5 cells into the right hind legs of mice. Detailed conditions for cell culture and xenograft tumor development were as described previously in K. Yamamoto, J. R. Brender, T. Seki, S. Kishimoto, N. Oshima, R. Choudhuri, S. S. Adler, E. M. Jagoda, K. Saito, N. Devasahayam, P. L. Choyke, J. B. Mitchell, and M. C. Krishna, Cancer Res 2020, 80, 2087-2093, which is incorporated herein in its entirety by reference. […] Both respiration (60-90 breaths per min) and temperature (35-37° C.) were maintained at a normal physiological range and monitored continuously during the animal experiment using the adjusted anesthesia. […]

SU.86.86 = experiment: In cell dynamic 13C NMR of hyperpolarized [1-13C] NAC at 1T, SU.86.86 cells; assay type: cell-based, human; details: SU.86.86 compared with Hs766t cells, FIGS. 2C and 2D
Source text: FIG. 2B is a in cell dynamic ^13C NMR spectra of hyperpolarized [1-^13C] NAC at 1T NMR on 20×10^6 cells of human pancreatic tumor cell lines of SU.86.86 (left) and expanded spectra with 100 times magnifications at 2 seconds after the hyperpolarized [1-^13C] NAC injections in SU.86.86 (right);
In an embodiment, a cell dynamic ^13C NMR spectra of hyperpolarized [1-^13C] NAC at 1T NMR spectrometer on human pancreatic ductal adenocarcinoma (PDAC) cell lines, which have one of the worst prognosises among common cancers and need effective diagnostic approaches, Hs766t (FIG. 2A) and SU.86.86 (FIG. 2B), in both cases, the cell dynamic ^13C-nuclear magnetic resonance (NMR) spectra of the hyperpolarized [1-^13C] N-acetyl cysteine may show three distinct peaks, a major peak at about 176.5 ppm and two peaks at about 176.8 and about 177.5 ppm.

## CC(=O)N[C@@H](CS)[13C](=O)O [[1-^13C] NAC, [1-^13C] N-acetyl cysteine]
Hs766t tumor xenografts
  distribution of non-converted NAC by chemical shift imaging: observed dominantly in the leg area
  site of NAC-GSH formation by chemical shift imaging: highest in the tumor and lowest in the surrounding muscle and leg regions
SU.86.86
  potential for NAC oxidation with glutathione (NAC-GSH/NAC peak intensity ratio over time and area under the curve ratio): higher potential for NAC oxidation with glutathione
